In patent publication US5514694A, “Peptidyl ketoamides” (Georgia Tech Research Corp, priority 1993, dated 1996):

Biological target: T1, cathepsin B (Homo sapiens, UniProt P07858)
T1 construct: purchased Sigma
Assay: Cathepsin B inhibition (KI)
Assay type: biochemical
Settings: Table 3, M1 CO-Leu--AA--CONH-R; read-out: KI Cat B
Protocol: HEPES, heparin, and A23187 were obtained from Calbiochem. Suc-Leu-Tyr-AMC and chromogenic substrates were obtained from Sigma. Calpain I was purified from human erythrocytes according to the method of Kitahara (Kitahara et al., J. Biochem. 95, 1759-1766) omitting the Blue-Sepharose step. Calpain II from rabbit muscle and cathepsin B were purchased from Sigma. Papain was purchased from Calbiochem.
Peptide α-ketoamides were assayed as reversible enzyme inhibitors. Various concentrations of inhibitors in Me2 SO were added to the assay mixture which contained buffer and substrate. The reaction was started by the addition of the enzyme and the hydrolysis rates were followed spectrophotometrically or fluorimetrically.
Calpain I from human erythrocytes and calpain II from rabbit were assayed using Suc-Leu-Tyr-AMC Sasaki et al., J. Biol. Chem. 259, 12489-12494 (1984); incorporated herein by reference!, and the AMC (7-amino-4-methylcoumarin) release was followed fluorimetrically (excitation at 380 nm, and emmision at 460 nm). Calpains were assayed in 25 mM Tris pH=8.0, 10 mM CaC12. Fluorescence was followed using a Gilson FL-1A fluorometer or a Perkin-Elmer 203 Fluorescence spectrometer. […] Enzymatic hydrolysis rates were measured at various substrate and inhibitor concentrations, and KI values were determined by either Lineweaver-Burk plots or Dixon plots. […]

- Ki: 2800 nM
SMILES: CCC(NC(=O)C(CC(C)C)NC(=O)C(c1ccccc1)c1ccccc1)C(=O)C(=O)NCc1ccccn1 (stereo not drawn) [Ph2 CH-CO-Leu-Abu-CONH-CH2 -2-pyridyl, Ph2 CHCO-Leu-Abu-CONH-2-CH2 -Pyridyl]
